Read-outs that look alike come from different tables or passages of the source.
Settings: room temperature and 95% RH, 17 days

Row | SMILES | outcome of stability study (listed as Enclomiphene having non-needle crystals) | outcome of stability study
1 | CCN(CC)CCOc1ccc(/C(=C(/Cl)c2ccccc2)c2ccccc2)cc1.O=C(O)CC(O)(CC(=O)O)C(=O)O [Enclomiphene citrate having non-needle crystals] [Ethanamine, 2-[4-[(1E)-2-chloro-1,2-diphenylethenyl]phenoxy]-N,N-diethyl-, 2-hydroxy-1,2,3-propanetricarboxylate (1:1), reference compound] | fails the stability studies | –
2 | CCN(CC)CCOc1ccc(/C(=C(/Cl)c2ccccc2)c2ccccc2)cc1.O=C(O)CC(O)(CC(=O)O)C(=O)O [Ethanamine, 2-[4-[(1E)-2-chloro-1,2-diphenylethenyl]phenoxy]-N,N-diethyl-, 2-hydroxy-1,2,3-propanetricarboxylate (1:1)] | – | remains thermodynamically stabile
